Experimental data from patent publication US9884844B2 (priority 2012, dated 2018).
pEC50: −log10 of the molar value.

By UniProt entry, the sequences of proteins in these tests, tags left out.
UniProt P35372, whole entry: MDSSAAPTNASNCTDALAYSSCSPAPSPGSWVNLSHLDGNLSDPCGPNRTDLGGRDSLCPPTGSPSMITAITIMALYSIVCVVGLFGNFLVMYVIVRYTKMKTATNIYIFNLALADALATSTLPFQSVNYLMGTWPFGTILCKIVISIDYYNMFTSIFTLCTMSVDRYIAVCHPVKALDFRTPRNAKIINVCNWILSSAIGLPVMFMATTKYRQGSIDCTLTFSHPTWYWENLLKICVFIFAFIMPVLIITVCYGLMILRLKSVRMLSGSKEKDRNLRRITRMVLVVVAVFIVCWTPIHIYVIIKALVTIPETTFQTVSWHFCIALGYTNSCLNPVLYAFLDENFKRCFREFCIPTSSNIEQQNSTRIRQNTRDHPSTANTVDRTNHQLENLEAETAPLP

Target: μ-opioid receptor (Homo sapiens, UniProt P35372)

| Structure (SMILES) | pEC50 |
| --- | --- |
| CNC(=O)C[C@]1(C)C(=O)N(C2CCN([C@@]3(C)CCCc4ccccc43)CC2)c2ccccc21 | > 7.00 |
| CNC(=O)CC1(O)C(=O)N(C2CCN(C3Cc4cccc5cccc3c45)CC2)c2ccccc21 (centres unmarked) | 6.00 to 7.00 |
| CNC(=O)CC1(OC)C(=O)N(C2CCN(C3Cc4cccc5cccc3c45)CC2)c2ccccc21 (centres unmarked) | > 7.00 |
| COC(=O)CC1C(=O)N(C2CCN(C3(C)CCCc4ccccc43)CC2)c2ccccc21 (centres unmarked) | > 7.00 |
| NC(=O)CC1C(=O)N(C2CCN(C3Cc4cccc5cccc3c45)CC2)c2ccccc21 (centres unmarked) | > 7.00 |
| NC(=O)[C@H]1CC12C(=O)N(C1CCN(C3Cc4cccc5cccc3c45)CC1)c1ccccc12 (some centres unmarked) | 6.00 to 7.00 |
| CNC(=O)CC1(C)C(=O)N(C2CCN(CCC(Oc3cc(OC)ccc3Cl)C(C)C)CC2)c2ccccc21 (centres unmarked) | > 7.00 |
| CNC(=O)CCC1(C)C(=O)N(C2CCN(C3Cc4cccc5cccc3c45)CC2)c2ccccc21 (centres unmarked) | > 7.00 |
| CNC(=O)[C@H]1CC12C(=O)N(C1CCN(C3Cc4cccc5cccc3c45)CC1)c1ccccc12 (some centres unmarked) | > 7.00 |
| CNC(=O)CCC1(O)C(=O)N(C2CCN(C3Cc4cccc5cccc3c45)CC2)c2ccccc21 (centres unmarked) | > 7.00 |
| CNC(=O)CC1C(=O)N(C2CCN(CCC(Oc3cc(OC)ccc3Cl)C(C)C)CC2)c2ccccc21 (centres unmarked) | > 7.00 |
| CNC(=O)C[C@@]1(C)C(=O)N(C2CCN([C@H]3c4cccc5cccc(c45)C3(F)F)CC2)c2ccccc21 | 6.00 to 7.00 |
| CNC(=O)CC1C(=O)N(C2CCN(C3CC[C@H]4CCCc5cccc3c54)CC2)c2ccccc21 (some centres unmarked) | > 7.00 |
| CNC(=O)CC1C(=O)N(C2CCN(C3(C)CCCc4ccccc43)CC2)c2ccccc21 (centres unmarked) | > 7.00 |
| NC(=O)C1CC12C(=O)N(C1CCN(C3Cc4cccc5cccc3c45)CC1)c1ccccc12 (centres unmarked) | > 7.00 |
| CNC(=O)C[C@@]1(C)C(=O)N(C2CCN([C@@]3(C)Cc4cccc5cccc3c45)CC2)c2ccccc21 (single isomer, unassigned) | > 7.00 |
| CNC(=O)CC1(O)C(=O)N(C2CCN(C3(C)CCCc4ccccc43)CC2)c2ccccc21 (centres unmarked) | > 7.00 |
| O=C1NCC2(N1)C(=O)N(C1CCN(C3Cc4cccc5cccc3c45)CC1)c1ccccc12 (centres unmarked) | > 7.00 |
| CNC(=O)CC1(C)C(=O)N(C2CCN(C3(C)Cc4cccc5cccc3c45)CC2)c2ccccc21 (centres unmarked) | > 7.00 |
| CNC(=O)C[C@]1(C)C(=O)N(C2CCN([C@@H]3Cc4cccc5cccc3c45)CC2)c2ccccc21 | > 7.00 |
| COc1ccc(Cl)c(OC(CCN2CCC(N3C(=O)C(O)(CC(N)=O)c4ccccc43)CC2)C(C)C)c1 (centres unmarked) | > 7.00 |
| O=C1CC2(CN1)C(=O)N(C1CCN(C3Cc4cccc5cccc3c45)CC1)c1ccccc12 (centres unmarked) | > 7.00 |
| CNC(=O)C[C@@]1(O)C(=O)N(C2CCN([C@H]3Cc4cccc5cccc3c45)CC2)c2ccccc21 | 6.00 to 7.00 |
| CNC(=O)C[C@]1(C)C(=O)N(C2CCN([C@@]3(C)Cc4cccc5cccc3c45)CC2)c2ccccc21 (single isomer, unassigned) | > 7.00 |
| CNC(=O)C(C)C1(O)C(=O)N(C2CCN(C3Cc4cccc5cccc3c45)CC2)c2ccccc21 (centres unmarked) | > 7.00 |

| Structure (SMILES) | pEC50 |
| --- | --- |
| CNC(=O)CC1(C)C(=O)N(C2CCN(C3(C)Cc4cccc5cccc(c45)C3)CC2)c2ccccc21 (centres unmarked) | > 7.00 |
| CNC(=O)C[C@@]1(O)C(=O)N(C2CCN([C@@H]3Cc4cccc5cccc3c45)CC2)c2ccccc21 | > 7.00 |
| CNC(=O)C[C@]1(O)C(=O)N(C2CCN([C@H]3Cc4cccc5cccc3c45)CC2)c2ccccc21 | 6.00 to 7.00 |
| CNC(=O)CC1(O)C(=O)N(C2CCN(C3c4cccc5cccc(c45)[C@@H]3C)CC2)c2ccccc21 (some centres unmarked) | 6.00 to 7.00 |
| CNC(=O)C[C@@]1(C)C(=O)N(C2CCN([C@@]3(C)CCc4ccccc43)CC2)c2ccccc21 | > 7.00 |
| COCCC1(C)C(=O)N(C2CCN([C@@H]3Cc4cccc5cccc3c45)CC2)c2ccccc21 (some centres unmarked) | > 7.00 |
| CNC(=O)CC1(O)C(=O)N(C2CCN(C3c4cccc5cccc(c45)C3C)CC2)c2ccccc21 (centres unmarked) | > 7.00 |
| CNC(=O)CC1(C)C(=O)N(C2CCN(C3(C)CCCc4ccccc43)CC2)c2ccccc21 (centres unmarked) | > 7.00 |
| CN1C(=O)NCC12C(=O)N(C1CCN(C3Cc4cccc5cccc3c45)CC1)c1ccccc12 (centres unmarked) | > 7.00 |
| COc1ccc(Cl)c(OC(CCN2CCC(N3C(=O)C(CC(N)=O)c4ccccc43)CC2)C(C)C)c1 (centres unmarked) | > 7.00 |
| CNC(=O)C[C@]1(O)C(=O)N(C2CCN([C@@H]3Cc4cccc5cccc3c45)CC2)c2ccccc21 | 6.00 to 7.00 |
| COCCC1(C)C(=O)N(C2CCN([C@H]3c4cccc5cccc(c45)C3O)CC2)c2ccccc21 (some centres unmarked) | > 7.00 |
| CNC(=O)C[C@@]1(C)C(=O)N(C2CCN([C@H]3Cc4cccc5cccc3c45)CC2)c2ccccc21 | 6.00 to 7.00 |
| CNC(=O)C[C@H]1C(=O)N(C2CCN(C3Cc4cccc5cccc3c45)CC2)c2ccccc21 (some centres unmarked) | > 7.00 |
| CNC(=O)C(C)C1(F)C(=O)N(C2CCN(C3Cc4cccc5cccc3c45)CC2)c2ccccc21 (centres unmarked) | > 7.00 |
| CNC(=O)CC1(O)C(=O)N(C2CCN(C3(C)CCc4ccccc43)CC2)c2ccccc21 (centres unmarked) | > 7.00 |
| CNC(=O)CC1(O)C(=O)N(C2CCN(C3Cc4cccc5ccc(OC)c3c45)CC2)c2ccccc21 (centres unmarked) | > 7.00 |
| CNC(=O)C[C@@H]1C(=O)N(C2CCN(C3Cc4cccc5cccc3c45)CC2)c2ccccc21 (some centres unmarked) | > 7.00 |
| CNC(=O)C[C@]1(C)C(=O)N(C2CCN([C@H]3c4cccc5cccc(c45)C3(F)F)CC2)c2ccccc21 | > 7.00 |
| CNC(=O)CC1(C)C(=O)N(C2CCN([C@H]3c4cccc5cccc(c45)[C@@H]3O)CC2)c2ccccc21 (some centres unmarked) | > 7.00 |
| CC1(CC(N)=O)C(=O)N(C2CCN(C3Cc4cccc5cccc3c45)CC2)c2ccccc21 (centres unmarked) | > 7.00 |
| CNC(=O)CC1(C)C(=O)N(C2CCN([C@H]3c4cccc5cccc(c45)[C@@H]3OC)CC2)c2ccccc21 (some centres unmarked) | > 7.00 |
| CNC(=O)C[C@]1(C)C(=O)N(C2CCN([C@@]3(C)CCc4ccccc43)CC2)c2ccccc21 | > 7.00 |
| CNC(=O)C1CC12C(=O)N(C1CCN(C3Cc4cccc5cccc3c45)CC1)c1ccccc12 (centres unmarked) | 6.00 to 7.00 |
| CNC(=O)CC1(O)C(=O)N(C2CCN(C3(C)Cc4cccc5cccc3c45)CC2)c2ccccc21 (centres unmarked) | > 7.00 |
